Data on nine compounds can be found in PubChem BioAssay (NCI).

A short description of assay [1]: NCI Yeast Anticancer Drug Screen. Data for the rad50 strain (AID 155).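 Also: 0% = growth of vehicle-only cultures of the same strain.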 The conditions noted are these: S. cerevisiae rad50 strain growth inhibition, stronger effect = higher value.
A short description of assay [2]: NCI Yeast Anticancer Drug Screen. Data for the mec2-1 strain (AID 157). To be noted: S. cerevisiae mec2-1 strain, stronger effect = higher value.
A short description of assay [3]: NCI Yeast Anticancer Drug Screen. Data for the sgs1 mgt1 strain (AID 161).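 Also: 0% = growth of cultures given vehicle only.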 The conditions noted are these: S. cerevisiae sgs1 mgt1 strain, stronger effect = higher value.
Assay [4] can be described thus: NCI Yeast Anticancer Drug Screen. Data for the cln2 rad14 strain (AID 165).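 Also: 0% = growth equal to vehicle treated cultures.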 To be noted: S. cerevisiae cln2 rad14 strain, stronger effect = higher value.
The nature of assay [5]: NCI Yeast Anticancer Drug Screen. Data for the bub3 strain (AID 167). The conditions noted are these: S. cerevisiae bub3 mutant strain, stronger effect = higher value.
Assay [6] can be described thus: NCI Yeast Anticancer Drug Screen. Data for the mlh1 rad18 strain (AID 175). The conditions noted are these: S. cerevisiae mlh1 rad18 strain growth inhibition, stronger effect = higher value.
Setting [7] is: at 5.0 µM (retest, dose inferred, filed as 0.5).
The mark [8] stands for this setting: at 50.0 µM (retest, dose inferred, filed as 5.0).

Several values for one entry are separate records, joined by “and”; a condition that tells them apart may be missing. Equal values may be shown once. This is a selection; strong and weak results do not stand in their true shares. A structure can be active in one record and inactive in another. Activity calls are given as the source filed them. Rule as the data show it: active = growth inhibition above about 70%; inactive = the rest.

`Cc1ccc2ccc3ccc4ccccc4c3c2c1.O=C1c2cc([N+](=O)[O-])ccc2-c2c1cc([N+](=O)[O-])cc2[N+](=O)[O-]`: the growth inhibition in assay [1] (at 1.2 µM) is inactive: 1%; in assay [1] (at 3.7 µM), inactive: 5%; in assay [1] (setting [7]), inactive: 14%; in assay [1] (at 11.0 µM), inactive: 11%; in assay [1] (at 33.0 µM) it was inactive: 18%; in assay [1] (setting [8]), inactive: 51%. Moreover, the growth inhibition in assay [1] (at 50.0 µM) is active: 89%; in assay [1] (at 100.0 µM), inactive: 20%; in assay [2] (at 1.2 µM), inactive: -3%; in assay [2] (at 3.7 µM), inactive: 3%; in assay [2] (setting [7]), inactive: 11%; in assay [2] (at 11.0 µM) it was inactive: 9%. The growth inhibition is inactive: 17% in assay [2] (at 33.0 µM); inactive: 31% in assay [2] (setting [8]); active: 79% in assay [2] (at 50.0 µM); inactive: 31% in assay [2] (at 100.0 µM); inactive: 20% in assay [3] (setting [7]); inactive: 55% in assay [3] (setting [8]). The growth inhibition in assay [3] (at 50.0 µM) was active: 81.6%; in assay [4] (setting [7]), inactive: 2%; in assay [4] (setting [8]), inactive: 4%; in assay [4] (at 50.0 µM), inactive: 13.2%; in assay [5] (at 1.2 µM) it was inactive: -2%; in assay [5] (at 3.7 µM) it was inactive: -2%. Also, the growth inhibition in assay [5] (setting [7]) was inactive: 6%; in assay [5] (at 11.0 µM), inactive: -1%; in assay [5] (at 33.0 µM), inactive: 7%; in assay [5] (setting [8]), inactive: 31%; in assay [5] (at 50.0 µM), active: 89.3%; in assay [5] (at 100.0 µM), inactive: 7%. Further, the results for the growth inhibition in assay [6] (setting [7]), in assay [6] (setting [8]) and in assay [6] (at 50.0 µM) were inactive: 30%, inactive: 50% and active: 88.6%, respectively.

As for `CCCC[S+]1C2CCCCCCC21.O=[N+]([O-])c1cc([N+](=O)[O-])c(S(=O)(=O)[O-])c([N+](=O)[O-])c1`, the growth inhibition was inactive: 2% in assay [1] (setting [7]); inactive: 29% in assay [1] (setting [8]); inactive: 46.4% in assay [1] (at 50.0 µM); inactive: 9% in assay [2] (setting [7]); inactive: 63% in assay [2] (setting [8]); inactive: 27.9% in assay [2] (at 50.0 µM). In addition, the growth inhibition in assay [3] (setting [7]) was inactive: -4%; in assay [3] (setting [8]) it was inactive: 44%; in assay [3] (at 50.0 µM), inactive: 64.5%; in assay [4] (setting [7]) it was inactive: -13%; in assay [4] (setting [8]) it was inactive: 26%; in assay [4] (at 50.0 µM), inactive: 45.8%. Also, the growth inhibition is inactive: 6% in assay [5] (setting [7]); inactive: 43% in assay [5] (setting [8]); inactive: 56% in assay [5] (at 50.0 µM); inactive: 21% in assay [6] (setting [7]); inactive: 56% in assay [6] (setting [8]); inactive: 41.1% in assay [6] (at 50.0 µM).

Consider `Cc1ccccc1[As]=O` (stereo not drawn), for which the growth inhibition in assay [1] (setting [7]) is active: 94%; in assay [1] (setting [8]), active: 99%; in assay [1] (at 50.0 µM) it was active: 99.3%; in assay [2] (setting [7]) it was active: 98%; in assay [2] (setting [8]), active: 99%; in assay [2] (at 50.0 µM), active: 99.5%. In addition, the growth inhibition in assay [3] (setting [7]) is active: 96%; in assay [3] (setting [8]), active: 99%; in assay [3] (at 50.0 µM) it was active: 99%; in assay [4] (setting [7]), active: 85%; in assay [4] (setting [8]), active: 99%; in assay [4] (at 50.0 µM), active: 98.8%. The growth inhibition in assay [5] (setting [7]) is active: 90%; in assay [5] (setting [8]), active: 99%; in assay [5] (at 50.0 µM), active: 99%; in assay [6] (setting [7]), active: 97%; in assay [6] (setting [8]), active: 99%; in assay [6] (at 50.0 µM) it was active: 99%.

Regarding `[N-]=[N+]=Nc1c([N+](=O)[O-])cc([N+](=O)[O-])cc1[N+](=O)[O-]`, the growth inhibition in assay [1] (setting [7]) is inactive: 3%; in assay [1] (setting [8]), active: 94%; in assay [1] (at 50.0 µM), active: 96.5%; in assay [2] (setting [7]), inactive: -8%; in assay [2] (setting [8]), active: 95%; in assay [2] (at 50.0 µM), inactive: 29.4%. Further, the growth inhibition is inactive: 10% in assay [3] (setting [7]); active: 96% in assay [3] (setting [8]); active: 93.5% in assay [3] (at 50.0 µM); inactive: -2% in assay [4] (setting [7]); active: 82% in assay [4] (setting [8]); inactive: 35.8% in assay [4] (at 50.0 µM). Moreover, the growth inhibition in assay [5] (setting [7]) is inactive: 5%; in assay [5] (setting [8]) it was active: 94%; in assay [5] (at 50.0 µM), active: 71.3%; in assay [6] (setting [7]), inactive: 32%; in assay [6] (setting [8]), active: 98%; in assay [6] (at 50.0 µM), active: 96.8%.

Regarding `CCC(C)(C)CNc1c([N+](=O)[O-])cc([N+](=O)[O-])cc1[N+](=O)[O-]`, the growth inhibition in assay [1] (setting [7]) is inactive: 30%; in assay [1] (setting [8]), active: 89%; in assay [1] (at 50.0 µM) it was active: 97%; in assay [2] (setting [7]) it was inactive: 30%; in assay [2] (setting [8]) it was active: 87%; in assay [2] (at 50.0 µM), active: 81.5%. The growth inhibition in assay [3] (setting [7]) is inactive: 50%; in assay [3] (setting [8]) it was active: 99%; in assay [3] (at 50.0 µM), active: 99.4%; in assay [4] (setting [7]), inactive: 13%; in assay [4] (setting [8]), inactive: 43%; in assay [4] (at 50.0 µM), inactive: 40.6%. Moreover, the growth inhibition in assay [5] (setting [7]) is inactive: 28%; in assay [5] (setting [8]), active: 88%; in assay [5] (at 50.0 µM) it was active: 98%; in assay [6] (setting [7]) it was inactive: 40%; in assay [6] (setting [8]), active: 92%; in assay [6] (at 50.0 µM), active: 97.5%.

Regarding `C1CN1.NC(Cc1cnc[nH]1)C(=O)O.Nc1ncnc2nc[nH]c12` (stereo not drawn), the growth inhibition is inactive: 33% in assay [1] (setting [8]); inactive: -3% in assay [2] (setting [7]); inactive: 5% in assay [2] (setting [8]); active: 97.8% in assay [2] (at 50.0 µM); inactive: 11% in assay [3] (setting [8]); inactive: 7% in assay [4] (setting [8]). In addition, the growth inhibition in assay [4] (at 50.0 µM) was active: 98.8%; in assay [5] (setting [8]) it was inactive: 10%; in assay [5] (at 50.0 µM), active: 97.8%; in assay [6] (setting [8]), inactive: 21%; in assay [6] (at 50.0 µM), active: 98.5%.

For the compound `Cc1cccc2ccc3ccccc3c12.O=C1c2cc([N+](=O)[O-])ccc2-c2c1cc([N+](=O)[O-])cc2[N+](=O)[O-]`, the growth inhibition in assay [1] (setting [7]) is inactive: 7%; in assay [1] (setting [8]), inactive: 31%; in assay [1] (at 50.0 µM), inactive: 60.4%; in assay [2] (setting [7]), inactive: 8%; in assay [2] (setting [8]), inactive: 21%; in assay [2] (at 50.0 µM) it was inactive: 7.2%. Further, the growth inhibition in assay [3] (setting [7]) is inactive: 2%; in assay [3] (setting [8]) it was inactive: 45%; in assay [3] (at 50.0 µM), inactive: 26.7%; in assay [4] (setting [8]) it was inactive: 5%; in assay [4] (at 50.0 µM), inactive: 11.3%; in assay [5] (setting [7]), inactive: 4%. For the same compound, the growth inhibition in assay [5] (setting [8]) was inactive: 23%; in assay [5] (at 50.0 µM) it was inactive: 65.1%; in assay [6] (setting [7]) it was inactive: 18%; in assay [6] (setting [8]), inactive: 44%; in assay [6] (at 50.0 µM), active: 75.5%.

`C1CN1.NC(Cc1cnc[nH]1)C(=O)O` (stereo not drawn): the growth inhibition is active: 99% and inactive: 2% and inactive: -2% in assay [1] (setting [8]); inactive: 7% and inactive: -23% and inactive: -24% in assay [2] (setting [7]); active: 99% and inactive: 4% and inactive: 1% in assay [2] (setting [8]); active: 99% and inactive: 5% and inactive: 3% in assay [3] (setting [8]); active: 99% and inactive: 2% and inactive: -3% in assay [4] (setting [8]); active: 98% and inactive: -5% and inactive: -8% in assay [5] (setting [8]). Further, in assay [6] (setting [8]), the growth inhibition was active: 99% and inactive: 6% and inactive: 1%.

`CSC(C)C(C)[S+](C)C.O=[N+]([O-])c1cc([N+](=O)[O-])c(S(=O)(=O)[O-])c([N+](=O)[O-])c1`: the growth inhibition is inactive: 5% in assay [1] (setting [7]); inactive: 24% in assay [1] (setting [8]); inactive: 44.3% in assay [1] (at 50.0 µM); inactive: 5% in assay [2] (setting [7]); inactive: 50% in assay [2] (setting [8]); inactive: 28.8% in assay [2] (at 50.0 µM). Besides, the growth inhibition was inactive: 2% in assay [3] (setting [7]); inactive: 60% in assay [3] (setting [8]); active: 72.5% in assay [3] (at 50.0 µM); inactive: -4% in assay [4] (setting [7]); inactive: 26% in assay [4] (setting [8]); inactive: 44.5% in assay [4] (at 50.0 µM). The growth inhibition was inactive: 4% in assay [5] (setting [7]); inactive: 36% in assay [5] (setting [8]); inactive: 28.9% in assay [5] (at 50.0 µM); inactive: 28% in assay [6] (setting [7]); inactive: 57% in assay [6] (setting [8]); inactive: 32.5% in assay [6] (at 50.0 µM).
